Test results from patent US10174040B2, “Pyrrolopyrimidine compound or salt thereof and compositions containing the pyrrolopyrimidine compound or salt thereof” (TAIHO PHARMACEUTICAL CO., LTD., priority 2014, dated 2019).

Columns and labels:
[1] = Body weight change, antitumor test 2 (HCT-116 mice); assay type: in vivo, BALB/cAJcl-nu/nu mice; details: HCT-116 nude mice, Test Example 6
Text: Human colon cancer HCT-116 cell lines were washed in PBS and suspended at a concentration of 4×10^7 cells/mL.
TV (mm3)=(length×width^2)/2, wherein the unit of length and width is mm (equation D).
When the TV reached 100 to 300 mm3, the animals were assigned to each group in accordance with a stratified randomization procedure. The day was considered day 1, the TV on the day was considered TV1, and the body weight on the day was considered BW1.
A required amount of the test compound was weighed to prepare an administration solution.

[2] = test system: Human colon cancer HCT-116 cell lines; assay: Antitumor effect on tumor cells transplanted into mice 2 (HCT-116, tumor volume); assay type: in vivo, BALB/cAJcl-nu/nu mice; details: HCT-116 in nude mice, hydrochloride compound of Example 55
Text: Human colon cancer HCT-116 cell lines were washed in PBS and suspended at a concentration of 4×10^7 cells/mL. […] TV (mm3)=(length×width^2)/2, wherein the unit of length and width is mm (equation D). When the TV reached 100 to 300 mm3, the animals were assigned to each group in accordance with a stratified randomization procedure. The day was considered day 1, the TV on the day was considered TV1, and the body weight on the day was considered BW1. A required amount of the test compound was weighed to prepare an administration solution.

CCOc1cccc(F)c1C#Cc1cn([C@@H]2O[C@H](CNS(N)(=O)=O)[C@@H](O)[C@H]2O)c2ncnc(N)c12 [Example 55, 4-Amino-7-[(2R,3R,4S,5R)-3,4-dihydroxy-5-[(sulfamoylamino)methyl]tetrahydrofuran-2-yl]-5-[2-(2-ethoxy-6-fluoro-phenyl)ethynyl]pyrrolo[2,3-d]pyrimidine]
change of the body weight compared with the control [1]: within an acceptable degree | RTV comparison with Comparative Example ([2]; Aspin-Welch's t-test): significantly lower than that of the Comparative Example | RTV15 comparison with control ([2]; Dunnett's test): significantly lower than that of the control
